# Reference: patent US11479755B2, “T cell compositions” (2seventy bio, Inc., priority 2015, dated 2022)
# Test system: anti-BCMA CAR T cells
# Assay: Cell surface marker expression by multiparameter mass cytometry (CyTOF)
# Format: cell-based
# Conditions: CD62L positive cells, ten days of culture
# Experimental: Expression analysis of 29 additional cell surface markers on anti-BCMA CAR T cells cultured with IL-2 and ZSTK474 was performed using multiparameter mass cytometry (CyTOF) and compared with CAR T cells cultured in IL-2 alone. […] Thus, co-expression of CD62L, CD127, CD197, and CD38 further stratified ZSTK474-cultured CAR T cells. After culture in media containing IL-2, 7.44% of anti-BCMA CART co-expressed CD127, CD197 and CD38 compared to 24.5% of anti-BCMA CAR T cells cultured with IL-2 and ZSTK474. The Venn diagram in FIG. 8 illustrates the co-expression of CD127, CD197 and CD38 in CD62L positive anti-BCMA CAR T cells.
substance,measurement,value
IL-2: interleukin-2 (CellGenix) in culture media; standard culture condition,"anti-BCMA CAR T cells co-expressing CD127, CD197 and CD38",7.44%
